# Experimental data taken from ChEMBL document CHEMBL1124998, “3-(2-carboxyindol-3-yl)propionic acid derivatives: antagonists of the strychnine-insensitive glycine receptor associated with the N-methyl-D-aspartate receptor complex” (J Med Chem, 1990).
# Key:
# Glutamate NMDA receptor [1] = assay: Activity against rat cortical and hippocampal membrane N-methyl-D-aspartate glutamate receptor 1/2A/2B/2C/2D using [3H]CPP; format: tissue-based, Hippocampus
# Glutamate NMDA receptor [2] = assay: Activity against rat cortical and hippocampal membrane strychnine-insensitive N-methyl-D-aspartate glutamate receptor 1 using [3H]-gly; format: tissue-based, Hippocampus
smiles,measurement,setting,value
O=C(O)c1cc(=O)c2ccccc2[nH]1 [TRANSTORINE],IC50,Glutamate NMDA receptor [1],75 µM
same,IC50,Glutamate NMDA receptor [2],16 µM
